Residues, ends and D or L forms follow the SMILES beside them. *: point of attachment. Cbz = O=C(OCc1ccccc1)*; CH2F = FC*
Columns and labels:
THP1 monocytes = test: TRAIL-induced extrinsic apoptosis in THP1 monocytes; assay type: cell-based, human; details: 25 μM inhibitor 30 min, then 100 ng/mL TRAIL
[1] = test system: HCC1806 triple-negative breast cancer cells; test: TNF-α-induced extrinsic apoptosis in HCC1806 cells; details: 10 μM inhibitor, 24 h

CC[C@H](C)[C@H](NC(=O)OCc1ccccc1)C(=O)N[C@@H](CCC(=O)OC)C(=O)N[C@H](C(=O)N[C@@H](CC(=O)OC)C(=O)CF)[C@@H](C)O [zIETD-FMK] (Cbz-IE(OMe)TD(OMe)-CH2F)
caspase-8-mediated activation of caspases-3/7; caspase-3 and PARP processing (THP1 monocytes): able to inhibit caspase-3 and PARP processing
caspase-3 and PARP processing (immunoblot) [1]: able to inhibit caspase-3 and PARP processing

COC(=O)CC[C@H](NC(=O)[C@H](CC(C)C)NC(=O)OCc1ccccc1)C(=O)N[C@@H](Cc1c[nH]cn1)C(=O)N[C@@H](CC(=O)OC)C(=O)CF [zLEHD-FMK] (Cbz-LE(OMe)HD(OMe)-CH2F)
caspase-8-mediated activation of caspases-3/7; caspase-3 and PARP processing (THP1 monocytes): able to inhibit caspase-3 and PARP processing

— article PMC12371506 (ACS Bio & Med Chem Au, 2025)
